According to patent US11192920B2, “Peptides for binding to CD44v6 and use thereof” (KYUNGPOOK NATIONAL UNIVERSITY INDUSTRY-ACADEMIC COOPERATION …, priority 2017, dated 2021):

Columns and labels:
[1] = system: MDA-MB-231 and 4T1 cells; conditions: different concentration, 24 hours
From the text: Biotinylated peptide+avidin bead+cell lysate (complex 2) were eluted for western blot analysis using CD44v6 antibody to pull down the specific protein.

[2] = system: 4T1 orthotopic mice; conditions: for ex vivo fluorescence intensity in target tumors: 6 h post-injection, compared to control peptide; for in vivo tumor localization: FPR 675-labeled peptide i.v., 4T1 orthotopic mice, 1-6 h
[3] = system: MDA-MB-231 xenograft; conditions: for ex vivo fluorescence intensity in target tumors: 6 h post-injection, compared to control peptide; for in vivo tumor localization: FPR 675-labeled peptide i.v., MDA-MB-231 xenograft mice, 1-6 h

## CNEWQLKSC [v6Pep-2]
[1]
  cell viability (cytotoxicity): did not significantly affect cell viability
[2]
  ex vivo fluorescence intensity in target tumors: high accumulation
  in vivo tumor localization: localized to tumor tissue
[3]
  ex vivo fluorescence intensity in target tumors: high accumulation
  in vivo tumor localization: readily localized to tumor tissue

## CNLNTIDTC [v6Pep-1]
[1]
  cell viability (cytotoxicity): did not significantly affect cell viability
[2]
  ex vivo fluorescence intensity in target tumors: high accumulation
  in vivo tumor localization: localized to tumor tissue
[3]
  ex vivo fluorescence intensity in target tumors: high accumulation
  in vivo tumor localization: readily localized to tumor tissue
